Here are results for 6 compounds from patent publication US11674136B2, “DNA-templated macrocycle library” (President and Fellows of Harvard College, priority 2018, dated 2023).

The chains behind the UniProt entries cited, without tags or fusion partners. Residues count along the entry.
UniProt P14735, 42-1019 limits assumed: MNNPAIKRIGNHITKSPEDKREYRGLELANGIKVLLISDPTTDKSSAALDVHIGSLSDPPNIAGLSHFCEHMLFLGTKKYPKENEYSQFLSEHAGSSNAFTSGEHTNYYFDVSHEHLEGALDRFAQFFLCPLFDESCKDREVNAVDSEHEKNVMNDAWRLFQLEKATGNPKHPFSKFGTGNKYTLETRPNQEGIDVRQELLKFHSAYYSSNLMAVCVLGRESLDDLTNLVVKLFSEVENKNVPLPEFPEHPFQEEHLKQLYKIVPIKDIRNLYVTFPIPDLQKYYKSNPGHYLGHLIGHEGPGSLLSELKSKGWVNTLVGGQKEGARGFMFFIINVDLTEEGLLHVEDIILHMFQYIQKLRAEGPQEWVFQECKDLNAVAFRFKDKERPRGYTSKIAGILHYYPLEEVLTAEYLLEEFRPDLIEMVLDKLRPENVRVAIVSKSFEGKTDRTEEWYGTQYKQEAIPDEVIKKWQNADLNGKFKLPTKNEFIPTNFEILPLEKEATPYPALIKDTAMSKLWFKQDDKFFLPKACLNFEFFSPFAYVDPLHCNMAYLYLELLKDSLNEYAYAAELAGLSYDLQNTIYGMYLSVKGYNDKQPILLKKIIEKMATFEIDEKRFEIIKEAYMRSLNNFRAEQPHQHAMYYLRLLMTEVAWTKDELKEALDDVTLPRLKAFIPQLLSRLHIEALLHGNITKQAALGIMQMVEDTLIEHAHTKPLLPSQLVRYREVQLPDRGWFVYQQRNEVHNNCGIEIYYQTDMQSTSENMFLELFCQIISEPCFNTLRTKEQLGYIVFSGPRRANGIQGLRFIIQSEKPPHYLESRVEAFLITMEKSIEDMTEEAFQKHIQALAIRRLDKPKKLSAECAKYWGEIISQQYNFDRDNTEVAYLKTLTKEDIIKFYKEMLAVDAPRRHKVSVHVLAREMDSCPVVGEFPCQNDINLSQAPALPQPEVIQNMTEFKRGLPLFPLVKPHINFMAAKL

Where only a bound is given, the exact number is not on record here.

For the first experiment, the target named is Recombinant human N-His6-IDE42-1019 (Homo sapiens, UniProt P14735). As to the kind of experiment: IDE inhibition assay with fluorogenic decapeptide substrate Mca-RPPGFSAFK(Dnp)-OH. The following applies: fluorogenic decapeptide cleavage assay; comparison with reference inhibitors. As for the experimental part: Recombinant human N-His6-IDE42-1019(R&D Systems) was assayed using the fluorophore/quencher-tagged peptide substrate Mca-RPPGFSAFK(Dnp)-OH (R&D) according to the manufacturer's instructions and using the recommended buffer 50 mM Tris, pH 7.5, 1 M NaCl (fluorophore Mca=(7-methoxycourmarin-4-yl)acetyl and quencher Dnp=2,4-dinitrophenyl). The enzyme mixture (48 μL) was transferred to a 96-well plate and combined with 2 μL of inhibitor in DMSO solutions, as 3-fold dilution series. The mixtures were allowed to equilibrate for 5 minutes and the enzymatic reaction was started by addition of substrate peptide in assay buffer (50 μL), immediately mixed by orbital shaking, and monitored on a fluorescence plate reader (excitation at 320 nm, emission at 405 nm). […] Inhibitor 6bK was used as a positive control in each assay, and error bars correspond to the standard error.
For `NCCOCCNC(=O)[C@H]1CCNC(=O)/C=C/C(=O)N[C@H](Cc2ccccc2C(F)(F)F)C(=O)N[C@@H](CC2CCCCC2)C(=O)N[C@H](Cc2ccc(C(=O)c3ccccc3)cc2)C(=O)N1`, the “IDE inhibition, potency in words” value is given as “weakly active”.

Staying with this experiment, now noted: read-out: IDE IC50; fluorogenic decapeptide cleavage assay; DNA-free macrocycle.
As a reminder, the IC50 is the concentration that inhibits the measured activity by half. For the compound `C[C@@H]1NC(=O)/C=C\C(=O)NCc2ccccc2C[C@@H](C(=O)NCCOCCN)NC(=O)[C@@H](Cc2ccc(C(=O)c3ccccc3)cc2)NC(=O)[C@H](CC2CCCCC2)NC1=O`, the 50% inhibitory concentration (IC50) was determined as 0.4 µM.

Regarding `NCCOCCNC(=O)[C@H]1CCNC(=O)/C=C/C(=O)N[C@H](Cc2ccccc2C(F)(F)F)C(=O)N[C@@H](CC2CCCCC2)C(=O)N[C@H](Cc2ccc(C(=O)c3ccccc3)cc2)C(=O)N1`, the concentration for half-maximal inhibition (IC50) was 20 µM.

On to `C[C@@H]1NC(=O)/C=C/C(=O)NCc2ccccc2C[C@@H](C(=O)NCCOCCN)NC(=O)[C@@H](Cc2ccc(C(=O)c3ccccc3)cc2)NC(=O)[C@H](CC2CCCCC2)NC1=O`, for which the half-maximal inhibitory concentration (IC50) is 0.6 µM. Regarding `NCCOCCNC(=O)[C@H]1Cc2ccccc2CNC(=O)C[C@@H](Cc2ccccc2)NC(=O)[C@H](Cc2ccco2)NC(=O)CN2CCN(CC2)C(=O)/C=C/C(=O)N1`, the IC50 was greater than 100 µM.

For the compound `C[C@@H]1NC(=O)/C=C/C(=O)NCC[C@H](C(=O)NCCOCCN)NC(=O)[C@@H](Cc2ccc(C(=O)c3ccccc3)cc2)NC(=O)[C@H](CC2CCCCC2)NC1=O`, the IC50 worked out at 2 µM. Take `C[C@@H]1NC(=O)/C=C\C(=O)NCC[C@H](C(=O)NCCOCCN)NC(=O)[C@@H](Cc2ccc(C(=O)c3ccccc3)cc2)NC(=O)[C@H](CC2CCCCC2)NC1=O`: the IC50 was 0.4 µM.
